According to US12195463B2 (priority 2018, dated 2025):

Molecular target: Mu opiate receptor (Homo sapiens, UniProt P35372)
Assay: Receptor binding, Mu opiate receptor
Details: qualitative statement

`O=C1CN2c3c(cccc3[C@H]3CN(CCCOc4ccc(F)cc4)CC[C@H]32)N1` [Example 1, (6bS,10aR)-8-(3-(4-fluorophenoxy)propyl)-6b,7,8,9,10,10a-hexahydro-1H-pyrido[3′,4′:4,5]pyrrolo[1,2,3-de]quinoxalin-2(3H)-one] was tested, and the “mu receptor activity, in words” value was “only weak mu receptor activity”.
